Among the data in article PMC11581428 are in vitro actin filament gliding assay: velocity of Alexa488-phalloidin-labelled F-actin over TbMyo1 immobilised via streptavidin on glass, 22°C, 2 mM ATP (n = 30 actin filaments) values, retold here.

The target in this test is full-length recombinant TbMyo1 (Trypanosoma brucei class I myosin) (Trypanosoma brucei) (UniProt Q585L2).

On to “Alexa488-phalloidin-labelled rabbit skeletal actin filaments (from UniProt P68135 1-377) (natural protein)”, for which the in vitro actin filament gliding assay: velocity of Alexa488-phalloidin-labelled F-actin over TbMyo1 immobilised via streptavidin on glass, 22°C, 2 mM ATP (n = 30 actin filaments) worked out at 130 nm/s.
